Assay results published in PMC4980677.

B1: SAMHD1_(115-626) WT (HD domain construct of human SAMHD1) [human] / itself (parent)
chain: MKVINDPIHGHIELHPLLVRIIDTPQFQRLRYIKQLGGGYYVFPGASHNRFEHSLGVGYLAGCLVHALGEKQPELQISERDVLCVQIAGLCHDLGHGPFSHMFDGRFIPLARPEVKWTHEQGSVMMFEHLINSNGIKPVMEQYGLIPEEDICFIKEQIVGPLESPVEDSLWPYKGRPENKSFLYEIVSNKRNGIDVDKWDYFARDCHHLGIQNNFDYKRFIKFARVCEVDNELRICARDKEVGNLYDMFHTRNSLHRRAYQHKVGNIIDTMITDAFLKADDYIEITGAGGKKYRISTAIDDMEAYTKLTDNIFLEILYSTDPKLKDAREILKQIEYRNLFKYVGETQPTGQIKIKREDYESLPKEVASAKPKVLLDVKLKAEDFIVDVINMDYGMQEKNPIDHVSFYCKTAPNRAIRITKNQVSQLLPEKFAEQLIRVYCKKVDRKSLYAARQYFVQWCADRNFTKPQDGDVIAPLITPQKKEWNDSTSVQNPTRLREASKSRVQLFKDDPM

Variants of: B1
Assay: sedimentation velocity analytical ultracentrifugation (van Holde-Weischet analysis), tetramer fraction against nucleotide concentration
Conditions: with itself, read off a plot
[1] = GTP titrated with dATP concentration held constant (concentration not given)
[2] = dATP titrated in the presence of 10 μM GTP

Row | Variant | EC50 [1] [µM] | EC50 [2] [µM]
1 | MKVINDPIHGHIELHPLLVRIIDTPQFQRLRYIKQLGGGYYVFPGASHNRFEHSLGVGYLAGCLVHALGEKQPELQISERDVLCVQIAGLCHDLGHGPFSHMFDGRFIPLARPEVKWTHEQGSVMMFEHLINSNGIKPVMEQYGLIPEEDICFIKEQIVGPLESPVEDSLWPYKGRPENKSFLYEIVSNKRNGIDVAKWDYFARDCHHLGIQNNFDYKRFIKFARVCEVDNELRICARDKEVGNLYDMFHTRNSLHRRAYQHKVGNIIDTMITDAFLKADDYIEITGAGGKKYRISTAIDDMEAYTKLTDNIFLEILYSTDPKLKDAREILKQIEYRNLFKYVGETQPTGQIKIKREDYESLPKEVASAKPKVLLDVKLKAEDFIVDVINMDYGMQEKNPIDHVSFYCKTAPNRAIRITKNQVSQLLPEKFAEQLIRVYCKKVDRKSLYAARQYFVQWCADRNFTKPQDGDVIAPLITPQKKEWNDSTSVQNPTRLREASKSRVQLFKDDPM [chain 1 D197A] | 20 | 15
2 | MKVINDPIHGHIELHPLLVRIIDTPQFQRLRYIKQLGGGYYVFPGASHNRFEHSLGVGYLAGCLVHALGEKQPELQISERDVLCVQIAGLCHDLGHGPFSHMFDGRFIPLARPEVKWTHEQGSVMMFEHLINSNGIKPVMEQYGLIPEEDICFIKEQIVGPLESPVEDSLWPYKGRPENKSFLYEIVSNKRNGIDVAKWDYFARDCHHLGIQNNFDYKRFIKFARVCEVDNELRICARDKEVGNLYDMFHTRNSLHRRAYQHKVGNIIDTMITDAFLKADDYIEITGAGGKKYRISTAIDDMEAYTKLTDNIFLEILYSTDPKLKDAREILKQIEYRNLFKYVGETQPTGQIKIKREDYESLPKEVASAKPKVLLDVKLKAEDFIVDVINMDYGMQEKNPIDHVSFYCKTAPNRAIRITKNQVSQLLPEKFAEQLIRVYCKKVDRKSLYAARQYFVQWCADRNFTKPQDGDVIAPLIDPQKKEWNDSTSVQNPTRLREASKSRVQLFKDDPM [chain 1 D197A T478D] | 9.5 | 28
